A short description of this test: Ratio of inhibitory concentration to that of reference drug was determined. In kind it is functional.

For `CN(C)c1ccc(C(=C2C=CC(=[N+](C)C)C=C2)c2ccc(N(C)C)cc2)cc1.[Cl-]` [GENTIAN VIOLET], the Ratio came to 1.

Values taken from ChEMBL document CHEMBL1133815, “Anti-Trypanosoma activity of some natural stilbenoids and synthetic related heterocyclic compounds” (Bioorg Med Chem Lett, 2001).
